Assay [1] concerns the target T1, IL-1β (Homo sapiens, UniProt P01584). The assay is described as follows: TR-FRET IL-1β/hIL-1R1 receptor displacement assay. In kind it is biochemical. How it is done: After 1 h incubation at room temperature, hIL-1R1 (1–332; Alexa 647 labeled; 50 nM final concentration) and anti-His-Europium W1024 (Perkin Elmer; Cat.No. AD0401, 1 nM final concentration) were added to a final volume of 10 μl per well. After 1 h of incubation at room temperature, time-resolved fluorescence was measured at λexc = 320 ± 20 nm, λem = 620 ± 25 nm/665 ± 25 nm using a Pherastar FSX plate reader. All experiments were run in triplicates. The data provided a typical saturation-binding curve, and the IC50 values were calculated by fitting the results to the Hill equation using Prism 7.0 and the in-house software Helios.
In general terms: TR-FRET usually uses a lanthanide donor and a delayed reading to cut background.

By UniProt entry, the sequences of proteins in these tests, tags left out. Residues count along the entry.
UniProt P01584, 117-269: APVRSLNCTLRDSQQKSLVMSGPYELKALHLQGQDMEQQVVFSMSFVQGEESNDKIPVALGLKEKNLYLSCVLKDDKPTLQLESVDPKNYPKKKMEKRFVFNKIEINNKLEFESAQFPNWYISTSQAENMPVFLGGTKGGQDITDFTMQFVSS
UniProt P01584, 117-269 V163A: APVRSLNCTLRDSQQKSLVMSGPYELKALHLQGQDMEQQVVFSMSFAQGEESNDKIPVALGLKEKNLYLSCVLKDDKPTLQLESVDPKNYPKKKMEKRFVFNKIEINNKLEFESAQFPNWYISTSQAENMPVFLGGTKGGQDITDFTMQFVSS

The target in assay [2] is T1, IL-1β. Put plainly: NMR titration with lineshape fitting, hIL-1β. Set-up: Mature hIL-1β was expressed in Escherichia coli; made in house; host or cells: Escherichia coli BL21 (DE3), pET17b. In kind it is binding. How it is done:
^1H–^13C- and ^1H–^15N-HMQC spectra were recorded on Bruker AVANCE 600 MHz and 800 MHz spectrometers equipped with TXI-cryocooled probeheads. In ligand binding experiments, protein concentrations were typically 50 μM in PBS, pH 7.4. Backbone assignments of hIL-1β in the ligand-bound state and unliganded state were obtained by a combination of a 3D triple resonance experiment HNCACB and a ^15N-edited NOESY spectrum, which were processed using TOPSPIN 3.2 and analyzed using CcpNmr AnalysisAssign 3.1.0[46]. ^15N-CEST experiments were run at weak B1 radiofrequency fields of 25 and 12.5 Hz on a Bruker AVANCE 800 MHz spectrometer with 113 increments and a total sweep width of 28 ppm in the pseudo-3D dimension. Peak intensities were extracted by fitting pseudo-Voigt lineshape models using peakipy (https://github.com/j-brady/peakipy). Fitted peak intensities were subsequently used to generate CEST profiles, and exchange parameters were fitted using ChemEx (https://github.com/gbouvignies/ChemEx).
(1 picture or pasted object on this page, not shown here)

In another assay the target is T2, hIL-1β^V47A (Homo sapiens, UniProt P01584, V163A).
T2 construct: Mature hIL-1β^V47A was expressed with a C-terminal His6 tag; made in house; host or cells: E. coli
The assay is described as follows: NMR titration with lineshape fitting, hIL-1β V47A. To be noted: two-site exchange model. In kind it is binding.

Setting [3] is: hIL-1β, 1:1 binding, read-out: KD by NMR lineshape fitting.

Like-named read-outs stand apart in the source and are kept apart here.

Consider `O=C1Nc2cc(C(F)(F)F)ccc2C1(O)c1cc(Cl)ccc1O` (stereo not shown) [Compound 1], for which the IC50 – broadly, the point on the concentration scale where inhibition reaches its midpoint – on IL-1β [1] is over 200 µM. The Kd on IL-1β [2] (setting [3]) turned out to be 520 µM.

The molecule `O=C1Nc2cc(C(F)(F)F)ccc2[C@]1(O)c1cc(Cl)ccc1O` [Compound (S)-1] displayed an IC50 at IL-1β [1] of over 200 µM. The Kd at IL-1β [2] (setting [3]) is 287 µM; on IL-1β [2] (hIL-1β, read-out: KD, lineshape fitting of Leu60 Cδ1H3 resonance), 324 ± 5 µM; at IL-1β [2] (initial value used in reporter assay, read-out: KD of the reporter from simulating concentration-dependent lineshapes) it was 250 µM; on hIL-1β^V47A, 263 ± 40 µM.

The record behind these values is PMC10484922, “Discovery of a selective and biologically active low-molecular weight antagonist of human interleukin-1β” (Nature Communications, 2023).
